## AlphaSeq binding of Ab-91 heavy chain variants to a spike HR2 peptide

The target is the same throughout: PDVDLGDISGINAS, from the HR2 region of SARS-CoV-2 spike.

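The starting antibody came from a phage panning campaign against this peptide. Variants in AAYL51 differ from the parent at up to three CDR positions; double and triple changes were sampled at random. In AlphaSeq, yeast of one mating type display the scFv and yeast of the other type display the target. Binding brings cells together so that they mate, and sequencing counts the barcode pairs among the diploids. A regression on co-assayed BCL2-family reference pairs converts the normalised counts of each replicate to an apparent Kd. The assay was run in three technical replicates.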

Parent scFv Ab-91: VL joined to VH by the linker GGGGSGGGGSGGGGS. Changes lie in the heavy chain CDRs alone.
VL: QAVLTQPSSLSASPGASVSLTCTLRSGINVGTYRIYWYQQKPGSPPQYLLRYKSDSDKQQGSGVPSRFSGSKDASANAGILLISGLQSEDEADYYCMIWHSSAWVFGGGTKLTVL
VH: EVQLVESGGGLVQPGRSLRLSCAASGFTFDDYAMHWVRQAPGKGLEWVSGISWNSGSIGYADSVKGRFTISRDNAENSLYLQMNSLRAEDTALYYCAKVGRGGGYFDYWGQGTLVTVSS

Positions count from residue 1 of the parent VH; G26L puts L in place of G. Affinities are written as log10 Kd with Kd in nM; a lower number is a better binder. "ND" means that the variant was in the library but no mating with the target was seen in that replicate; the authors take this as a sign of poor binding, and no number exists.

| # | changes | replicates, log10 nM | control signals |
|---|---|---|---|
| 1 | G26L+N54R+I58T | ND ND ND | 0/9 |
| 2 | N54C+S63D | ND ND ND | 0/9 |
| 3 | Y32W+M34Q+G104R | ND ND ND | 5/9 (4.87) |
| 4 | I51N+Y60C+F106H | ND ND ND | 1/9 (2.76) |
| 5 | N54S+S63G+V64I | ND ND ND | 0/9 |
| 6 | S57R+Y60V+V99H | ND ND ND | 0/9 |
| 7 | M34A+V64E+G102I | ND ND ND | 0/9 |
| 8 | W53S+A61S+D107R | ND ND ND | 2/9 (3.96) |
| 9 | F29L | ND ND ND | 1/9 (2.98) |
| 10 | A61L+S63C+G104R | ND ND ND | 0/9 |
| 11 | K65R+G104Y+Y108Q | 4.19 ND ND | 1/9 (3.19) |
| 12 | G56V+K65L+R101Q | 3.60 4.13 ND | 4/9 (4.10) |
| 13 | I51R+S63M | 5.96 ND ND | 1/9 (5.40) |
| 14 | F29A+A61L+D107F | ND ND ND | 1/9 (2.87) |
| 15 | S52F+Y60L+A61N | 3.50 3.70 ND | 1/9 (4.40) |
| 16 | D30W+H35C+G102S | ND 4.08 ND | 4/9 (4.22) |
| 17 | D30Q+N54R+K65S | 3.83 3.92 ND | 0/9 |
| 18 | F27C+T28V+H35C | 5.21 ND ND | 3/9 (3.93) |
| 19 | S52D+A61G | ND ND ND | 1/9 (1.78) |
| 20 | S57Q+Y60K+G102F | 4.61 5.38 5.38 | 9/9 (4.80) |
| 21 | N54P+K65Y+Y105E | ND ND ND | 0/9 |
| 22 | Y32R+G59S+R101W | ND ND ND | 0/9 |
| 23 | K65R+G102D+F106H | ND ND 3.73 | 1/9 (3.70) |
| 24 | G26L+Y60H+Y105D | 4.77 3.53 ND | 5/9 (4.36) |
| 25 | T28D+D30I+N54S | 3.34 3.62 4.13 | 1/9 (3.12) |
| 26 | M34A+Y105H+F106M | ND ND ND | 2/9 (3.65) |
| 27 | T28W+S52H+S57Q | ND ND ND | 2/9 (3.80) |
| 28 | Y32I+A61V+G102S | ND ND 5.07 | 3/9 (4.89) |
| 29 | D31K+A33W+S57W | ND ND ND | 4/9 (4.24) |
| 30 | G56W+S57I+G104V | 3.82 ND ND | 3/9 (4.45) |
| 31 | I51W+S55Q+G59T | ND ND ND | 2/9 (4.74) |
| 32 | W53D+A61W+F106S | ND ND 5.90 | 5/9 (5.06) |
| 33 | M34H+K65V | 5.54 ND 4.50 | 0/9 |
| 34 | T28F+Y105Q | 1.21 0.92 0.65 | 1/9 (3.36) |
| 35 | A61N+D62M | 6.07 5.44 5.94 | 4/9 (5.75) |
| 36 | N54C+G59V+S63F | ND ND ND | 2/9 (4.47) |
| 37 | D62Y+D107N+Y108W | ND ND ND | 1/9 (4.24) |
| 38 | G26Y+Y32E+D107S | ND ND ND | 1/9 (3.34) |

The first 5 variants above that were never detected:

changes,"replicates, log10 nM",control signals
G26L+N54R+I58T,ND ND ND,0/9
N54C+S63D,ND ND ND,0/9
Y32W+M34Q+G104R,ND ND ND,5/9 (4.87)
I51N+Y60C+F106H,ND ND ND,1/9 (2.76)
N54S+S63G+V64I,ND ND ND,0/9

Parent in this assay: reference entry 1.86, copy in this library 0.88. Background: pairings of library AAYL51 with three empty control strains gave a value in 21% of cases (median 4.54, 5th percentile 3.26). Values in that range, when seen in few replicates, are hard to tell from nonspecific mating. The control count says in how many pairings with the empty strains this scFv gave a signal, with their mean in brackets.

From the AlphaSeq antibody data of Engelhart et al. 2022 (doi:10.1038/s41597-022-01779-4), copy in the FLAb collection.